The Ki is the equilibrium dissociation constant of an inhibitor or competing ligand from its target.

Protein sequences, listed by entry. Tags and fused reporters are not part of them. Lines headed by an entry give the natural chain unless they say otherwise; changes in a name come on top.
UniProt P00915: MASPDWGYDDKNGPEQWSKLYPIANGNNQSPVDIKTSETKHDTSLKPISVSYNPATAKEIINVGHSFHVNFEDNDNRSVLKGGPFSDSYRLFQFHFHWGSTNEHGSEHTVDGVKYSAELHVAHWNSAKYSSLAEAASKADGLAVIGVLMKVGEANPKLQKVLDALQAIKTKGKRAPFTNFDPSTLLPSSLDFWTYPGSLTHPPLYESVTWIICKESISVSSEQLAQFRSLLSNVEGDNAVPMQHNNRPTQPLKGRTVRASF

One assay has as its target Carbonic anhydrase 1 (Homo sapiens, UniProt P00915). Description: Binding affinity to human recombinant CA1 assessed as inhibition constant incubated for 15 mins by phenol red dye based stopped flow CO2 hydration assay.
A further assay addresses Carbonic anhydrase 2 (Homo sapiens, UniProt P00918). Description: Binding affinity to human recombinant CA2 assessed as inhibition constant incubated for 15 mins by phenol red dye based stopped flow CO2 hydration assay.

For the compound `NS(=O)(=O)c1ccc(-n2ccc(C(=O)c3ccccc3)c2)cc1`, the Ki on Carbonic anhydrase 1 was determined as 73.1 nM; at Carbonic anhydrase 2, 57.5 nM.
For the compound `NS(=O)(=O)c1ccc(-n2cc(C(=O)c3ccccc3)c(-c3ccccc3)c2)cc1`, the Ki came to 209 nM at Carbonic anhydrase 1 and 72.4 nM on Carbonic anhydrase 2.
For the compound `NS(=O)(=O)c1ccc(-n2cc(C(=O)c3ccccc3)c3ccccc32)cc1`, the figures for the inhibition constant Ki at Carbonic anhydrase 1 and at Carbonic anhydrase 2 were 328 nM and 41.7 nM, respectively.
With `COc1cc(C(=O)c2ccn(-c3ccc(S(N)(=O)=O)cc3)c2)cc(OC)c1OC`, the Ki on Carbonic anhydrase 1 amounted to 95.6 nM.
